Reference: PubChem BioAssay (NCATS)
The list shows a part of the results, in another mix than the full data. Records with an inconclusive call do not appear. Activity calls are given as the source filed them. The call rests on the fitted dose curve; in most records, active means well fitted inhibition curve with a large enough effect; inconclusive means small, poorly fitted or top-dose-only effect; inactive means flat fitted curve, though single readings scatter.

By UniProt entry, the sequences of proteins in these tests, tags left out.
UniProt P07203, whole entry, looked up: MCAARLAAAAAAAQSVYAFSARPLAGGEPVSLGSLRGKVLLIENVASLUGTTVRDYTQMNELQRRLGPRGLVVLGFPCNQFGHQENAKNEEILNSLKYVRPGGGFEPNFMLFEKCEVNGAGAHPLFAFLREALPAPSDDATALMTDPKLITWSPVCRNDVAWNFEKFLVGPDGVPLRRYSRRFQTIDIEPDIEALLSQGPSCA

What follows are molecules tested against Glutathione peroxidase 1 (Homo sapiens) (UniProt P07203) (assay: Primary qHTS Assay for Inhibitors of Recombinant Selenoprotein Glutathione Peroxidase 1 (GPX1) (AID 1845191; further: nearly all actives have a fitted effect of over 65% in size)). Settings: recombinant GPX1, GR-coupled NADPH fluorescence, 15 min; activity, negative = inhibition: at 48.8 µM (top of the series).
Source text: Assay Provider: Elias S.J. Arner MD PhD.
Department of Medical Biochemistry and Biophysics
Karolinska Institutet, Solna, Stockholm, Sweden
Selenoprotein glutathione peroxidases (GPX), like the ubiquitously expressed GPX1 and the ferroptosis modulator GPX4, enact their antioxidant activities by reducing hydroperoxides using glutathione. […] GPX1 and GPX4 inhibitors have thus shown promise as anti-cancer agents. Existing inhibitors are often promiscuous, or modulate GPX activity only indirectly, so novel direct inhibitors identified through screening against GPX1 and GPX4 could be valuable. Here, we developed optimized glutathione reductase (GR)-coupled GPX assays for the biochemical high-throughput screen (HTS) of almost 12,000 compounds with known mechanisms of action. Initial hits were triaged using a GR counter-screen, assessed for isoform specificity using a separate GPX2 assay, and were assessed for general selenocysteine-targeting activity using a thioredoxin reductase (TXNRD1) assay. With this suite of assays, we identified novel GPX1/GPX2- and GPX4-specific inhibitors and can here present a validated pipeline for future discovery research for selenoprotein-targeting agents.
SEQUENCE No. (e.g., 1, 2, 3, etc.); […] (e.g., Cells, Incubation, Reagent, etc.); VALUE; DESCRIPTION.
1; Reagent 1; 3 uL; GPx1 enzyme or no enzyme control in 1536-well, black, solid Greiner assay plate.
2; Compound; 25 nL; Kalypsis pin tool (Wako USA) equipped with a 1536-well pin head.
3; Incubation; 30 min; room temperature.
4; Reagent 2; 1 uL; 10 nM GPX1, 1 mM GSH, 0.5 mM CHP, 0.5 mM NADPH, 100 nM GR, 0.01% BSA substrate
5; Detection; Fluorescence; ViewLux microplate reader, excitation 340 nm and emission 450 nm.
6; Incubation; 15 min; room temperature.
7; Detection; Fluorescence; ViewLux microplate reader, excitation 340 nm and emission 450 nm.
NOTES (numbers refer to Sequence numbers above)
1. 3 uL of 16.66 nM GPX1 and 0.016% BSA in assay buffer (50 mM Tris-HCl, 2 mM EDTA (pH 7.5), 150 mM NaCl) was added to columns 3-48 of 1536-well assay plates using a BioRAPTR Flying Reagent Dispenser (Let's Go Robotics (LGR), Carlsbad, CA). A no-enzyme control (0.01% BSA in TES assay buffer) was added to columns 1-2.
2. 25 nL of test compounds and DMSO controls were added to each well with a pin tool (Kalypsys).
3. The assay plates were incubated for 30 minutes at room temperature.
4. 1 uL of master mix (500 nM glutathione reductase (GR), 5 mM reduced glutathione (GSH), 2.5 mM NADPH in assay buffer) was added. 1 uL of cumene hydroperoxide (CHP) ([2.5 mM] in 50% EtOH) was then added within 5 minutes to initiate the reaction. Final concentrations were: 10 nM GPX1, 1 mM GSH, 0.5 mM CHP, 0.5 mM NADPH, 100 nM GR, 0.01% BSA.
5. Initial fluorescence readout (t=0) at 340/450 nm was measured using a ViewLux multimodal detector (PerkinElmer, Waltham, MA).
7. Endpoint fluorescence readout (t=15) at 340/450 nm was measured 15 min after room temperature incubation.
On the % scale 0 is the no-effect control and ±100 the full control effect.

SMILES | outcome | activity, negative = inhibition
CN(C(=O)Cc1ccc(Cl)c(Cl)c1)[C@H]1CCCC[C@@H]1N1CCCC1 | inactive | inactive: 3.42%
N[C@@H](Cc1ccc([N+]([O-])(CCCl)CCCl)cc1)C(=O)O | inactive | 
CN(C)C1(c2ccccc2)CCC2(CC1)OCCc1c2[nH]c2ccc(F)cc12 (stereo unspecified) | inactive | 
CN(C(=O)Cc1ccc(Cl)c(Cl)c1)[C@@H]1CCCC[C@@H]1N1CCCC1 |  | inactive: -29.5%
CN(C(=O)Cc1ccccc1)[C@@H]1CC[C@]2(CCCO2)C[C@H]1N1CCCC1 |  | inactive: -26.4%
CN(C(=O)Cc1ccc(Cl)c(Cl)c1)[C@@H]1CC[C@]2(CCCO2)C[C@H]1N1CCCC1 |  | inactive: -7.21%
NC(=O)Nc1ccc([As](=O)(O)O)cc1 |  | inactive: -5.29%
CCn1c(=O)n([C@@H]2CCN(CC3CCCCCCC3)C[C@H]2CO)c2ccccc21 | inactive | 
CN(C(=O)Cc1ccc(Cl)c(Cl)c1)[C@H]1CCCC[C@H]1N1CCCC1 | inactive | 
O=C(O[C@H]1CN2CCC1CC2)C1NCc2ccccc2[C@@H]1c1ccccc1 (stereo partly specified) |  | inactive: -16.7%
